From patent US20020161202A1, “Apo-2DcR” (Genentech, Inc., priority 1997, published 2002)

Columns and labels:
NF-κB [1] = experiment: NF-κB activity in HeLa cells treated with soluble ligand; format: cell-based, human; conditions: 1 μg/ml, FIG. 12B
NF-κB [2] = experiment: NF-κB activity in MCF7 cells treated with soluble ligand; format: cell-based, human; conditions: 1 μg/ml, FIG. 12B

TNF-alpha: tumor necrosis factor-α (Genentech, Inc.)
NF-κB activation in treated HeLa cells (NF-κB [1]): more pronounced activation | NF-κB activation in treated MCF7 cells (NF-κB [2]): more pronounced activation
